The values that follow come from publication PMC5226287 (Pharmacology Research & Perspectives, 2016).

Data set [1] in a line: Adverse effects questionnaire after buprenorphine in healthy subjects. The data set is classed as in vivo, human.
The conditions of data set [2]: cited from earlier work.
The conditions of data set [3]: rifampicin 600 mg daily for 15 days; stable high-dose sublingual buprenorphine/naloxone, opioid-dependent subjects; ref McCance‐Katz et al. 2011; cited from earlier work.
For data set [4] the following is noted: human, in vivo.
For data set [5] the following is noted: human, in vivo, iv.
Where [6] appears, read: ref Brewster et al. 1981, Cone et al. 1984.

“And” between values parts separate entries of the source, which are not always exact repeats. Identical values can stand only once. “Also recorded” adds a separate entry of the source. Like-named read-outs stand apart in the source and are kept apart here.

For the substance buprenorphine, the Adverse effects result in data set [1] (all subjects, sublingual 0.6/0.8 mg and intravenous 0.4 mg) is listed as “mild‐to‐moderate adverse effects”. For the same substance, the “Subjects needing medication (cetirizine hydrochloride) for itch or urticaria” value in data set [1] (intravenous part, 12 subjects) is “Eight”. Besides, in data set [2] (setting [6]), the “Excreted in bile (as metabolites)” value is 80–90% and the “Excreted in urine (mainly as metabolites)” value is listed as 10–30%. Further, the “Time to peak plasma concentrations” value in data set [2] (sublingual, ref Bullingham et al. 1981, McAleer et al. 2003, Ciraulo et al. 2006) was 1 to 3 h. For the same substance, the Bioavailability in data set [2] (sublingual, ref Bullingham et al. 1982, Kuhlman et al. 1996, Mendelson et al. 1997, Nath et al. 1999, Cowan et al. 2005) is given as 30–55%. The “Decrease in the mean AUC by rifampicin” value in data set [3] was 70%. Further, in data set [4], the AUC0-18 was 1.64 ± 0.74 ng·h/mL and 1.36 ± 0.87 ng·h/mL; the “Ae, amount excreted into urine within 18 h (free unconjugated)” value was 0.21 ± 0.20 µg and 0.17 ± 0.20 µg; the C max was 0.36 ± 0.15 ng/mL and 0.30 ± 0.17 ng/mL; the “Decrease of mean AUC0–18 by rifampicin” value is 25%. In addition, in data set [5], the “AUC0–18” value is 5.32 ± 3.18 ng·h/mL and 4.53 ± 1.64 ng·h/mL; the “Ae, amount excreted into urine within 18 h (free unconjugated)” value was 1.5 ± 0.7 µg and 2.7 ± 2.3 µg; the “Effect of rifampicin on plasma concentrations” value was “not influenced; also recorded: no statistically significant differences”.
